Biological target: Cholinesterase (Homo sapiens, UniProt P06276)

The chains behind the UniProt entries cited, without tags or fusion partners.
UniProt P06276, whole entry: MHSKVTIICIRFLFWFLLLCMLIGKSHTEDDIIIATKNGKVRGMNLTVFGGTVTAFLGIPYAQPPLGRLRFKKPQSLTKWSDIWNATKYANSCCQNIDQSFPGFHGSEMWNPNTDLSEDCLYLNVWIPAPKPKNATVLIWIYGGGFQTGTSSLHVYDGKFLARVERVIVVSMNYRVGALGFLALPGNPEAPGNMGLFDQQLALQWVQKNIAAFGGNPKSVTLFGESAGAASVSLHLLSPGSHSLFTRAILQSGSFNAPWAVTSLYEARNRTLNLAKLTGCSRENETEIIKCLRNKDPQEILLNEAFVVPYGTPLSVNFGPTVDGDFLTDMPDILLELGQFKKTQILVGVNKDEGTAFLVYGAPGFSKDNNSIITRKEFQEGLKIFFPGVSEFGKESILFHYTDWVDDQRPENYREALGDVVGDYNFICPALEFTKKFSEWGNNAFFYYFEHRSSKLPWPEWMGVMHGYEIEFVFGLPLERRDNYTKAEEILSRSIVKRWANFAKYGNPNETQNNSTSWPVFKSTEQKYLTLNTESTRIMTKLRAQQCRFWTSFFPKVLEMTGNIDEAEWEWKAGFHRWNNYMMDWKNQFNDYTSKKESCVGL

Q: How did the IC50 turn out when `CCN(C)C(=O)Oc1cccc([C@H](C)N(C)C)c1` [RIVASTIGMINE] was run?
A: 49 nM
